{
  "source": "patent US20070167349A1",
  "about": "“Estrogen cancer therapy” (Cell Therapeutics, Inc., priority 2005, published 2007)",
  "test_system": "HT-29 CRC xenograft tumor",
  "details": "Paclitaxel iv 90 mg/kg, pool of 3 tumors",
  "note": "Where two headings read alike, the source gives them in different places.",
  "data": [
    {"compound": "CC(=O)O[C@H]1C(=O)[C@@]2(C)[C@H]([C@H](OC(=O)c3ccccc3)[C@]3(O)C[C@H](OC(=O)[C@H](O)[C@@H](NC(=O)c4ccccc4)c4ccccc4)C(C)=C1C3(C)C)[C@]1(OC(C)=O)CO[C@@H]1C[C@@H]2O", "note": "[Paclitaxel, paclitaxel]", "values": [
      {"measurement": "PTX in tumor", "setting": "+(E2), 24 h", "value": 6810},
      {"measurement": "PTX in tumor", "setting": "+(E2), 168 h", "value": 421},
      {"measurement": "PTX in tumor", "setting": "−(P), 24 h", "value": 7310}
    ]}
  ]
}
